Sequences of proteins named here, by UniProt entry; tags and fusion partners are left off.
UniProt P30542, whole entry: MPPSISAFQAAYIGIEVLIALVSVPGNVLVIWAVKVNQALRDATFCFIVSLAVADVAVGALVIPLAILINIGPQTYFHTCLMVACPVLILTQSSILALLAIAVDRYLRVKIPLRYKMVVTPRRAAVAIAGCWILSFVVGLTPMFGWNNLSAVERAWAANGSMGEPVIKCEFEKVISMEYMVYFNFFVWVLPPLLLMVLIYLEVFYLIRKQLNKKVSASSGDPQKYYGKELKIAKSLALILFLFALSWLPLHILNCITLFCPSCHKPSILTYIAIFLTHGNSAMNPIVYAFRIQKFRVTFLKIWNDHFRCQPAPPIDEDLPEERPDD

According to ChEMBL document CHEMBL1142938 (J Med Chem, 2007):

Target: Adenosine receptor A1 (Homo sapiens, UniProt P30542)
Experiment: Displacement of [3H]CCPA from human recombinant adenosine A1 receptor expressed in CHO cells
Assay type: cell-based

## CNC(=O)[C@H]1O[C@@H](n2cnc3c(NOC)nc(C#Cc4ccc(C)cc4)nc32)[C@H](O)[C@@H]1O
  Ki: 12 µM
